Tests used:
[1] = target: T1, Cholesteryl ester transfer protein (Homo sapiens, UniProt P11597); experiment: Inhibition of human CETP by scintillation proximity assay
T1 sequence (P11597 whole entry): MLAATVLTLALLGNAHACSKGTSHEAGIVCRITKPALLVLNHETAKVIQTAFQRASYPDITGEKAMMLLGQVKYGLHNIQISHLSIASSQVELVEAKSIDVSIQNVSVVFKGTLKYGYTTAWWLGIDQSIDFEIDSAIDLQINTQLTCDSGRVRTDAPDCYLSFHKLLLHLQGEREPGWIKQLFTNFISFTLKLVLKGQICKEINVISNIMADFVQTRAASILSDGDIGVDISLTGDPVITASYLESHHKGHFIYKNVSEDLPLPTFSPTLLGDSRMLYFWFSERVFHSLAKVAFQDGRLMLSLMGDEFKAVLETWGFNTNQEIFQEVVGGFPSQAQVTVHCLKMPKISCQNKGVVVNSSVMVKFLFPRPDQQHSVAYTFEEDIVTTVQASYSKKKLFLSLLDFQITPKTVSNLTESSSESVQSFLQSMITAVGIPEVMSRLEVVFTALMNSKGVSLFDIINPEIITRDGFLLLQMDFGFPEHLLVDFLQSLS

[2] = target: T1, Cholesteryl ester transfer protein; experiment: Inhibition of CETP in human whole plasma

O[C@H](CN(Cc1cccc(OC(F)(F)C(F)F)c1)c1cccc(Oc2ccccc2)c1)C(F)(F)F
IC50 [1]: 3 nM | IC50 [2]: 36 nM

— ChEMBL document CHEMBL1144829, “2-Arylbenzoxazoles as novel cholesteryl ester transfer protein inhibitors: optimization via array synthesis” (Bioorg Med Chem Lett, 2008)
